## Measured affinities in a library of Ab-14 light chain variants

Antigen: PDVDLGDISGINAS, a 14-residue peptide of the SARS-CoV-2 spike HR2 region.

The variants keep the heavy chain, the linker and the frameworks of Ab-14 (scFv order VH, the linker GGGGSGGGGSGGGGS, VL).
VH: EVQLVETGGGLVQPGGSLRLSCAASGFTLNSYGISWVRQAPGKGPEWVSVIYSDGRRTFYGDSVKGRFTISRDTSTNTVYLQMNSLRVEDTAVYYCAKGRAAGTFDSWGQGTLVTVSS
VL: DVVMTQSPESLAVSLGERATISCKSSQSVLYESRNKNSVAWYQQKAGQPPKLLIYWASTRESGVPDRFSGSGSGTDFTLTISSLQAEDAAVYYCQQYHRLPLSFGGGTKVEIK

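The starting antibody came from a phage panning campaign against this peptide. The variants were designed computationally from a first round of random CDR variants and then made and measured. Group labels follow the data file (Ctrl: baseline library sampled from a position-specific scoring matrix, with some repeated check sequences; En: ensemble of fine-tuned language models; GP: Gaussian process model; HC: hill climbing; Gen: genetic algorithm; Gibbs: Gibbs sampling; a sequence that several methods proposed may carry one label only). In AlphaSeq, yeast of one mating type display the scFv and yeast of the other type display the target. The frequency of each diploid, read from paired DNA barcodes, reflects how well the two displayed proteins bind. Read counts were normalised to the haploid input and turned into Kd by a linear fit to BCL2-family pairs of known affinity, for each replicate. Each pool was mated in six replicate cultures.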

Variants are written as CDR1, CDR2 and CDR3 of the light chain (limits as in the source). Parent: KSSQSVLYESRNKNSVA, WASTRES, QQYHRLPLS. Kd is apparent (estimated from mating counts) and averaged on the log scale over replicates with a signal. Smaller is tighter. "not detected" means that the variant was in the library but no mating with the target was seen in any replicate; the authors take this as a sign of poor binding, and no number exists.

| Kd (apparent) | replicates with signal | CDR-L1 | CDR-L2 | CDR-L3 | group |
|---|---|---|---|---|---|
| 640 pM | 6/6 | KLSQSWLYESRNKNSVA | NASTREE | QQYHRLPLS | GP_Gen |
| 78 nM | 5/6 | MISQLMNMGQFAINSVA | QATIRNS | QQYDRLPLA | En_Gen |
| 1.6 nM | 6/6 | KVLQSVLYESRNKNSVA | HASTRED | QQYHRLPLS | GP_HC |
| not detected | 0/6 | KSSQSVLEESRMKNSVA | WASTRES | NQYHRLPLS | Ctrl |
| 890 pM | 6/6 | KISQSELFESRNKNSVA | DASTRES | QQYHRLPLS | GP_HC |
| 2.4 nM | 6/6 | KSIQSVLYESRNKNSVA | SASTRES | QQYHRLPLS | Ctrl |
| 730 nM | 1/6 | KLRESIHVEQKQKNNVA | DNSTRES | QDYHRLPLS | En_HC |
| 1.5 nM | 6/6 | TISQSAVMESHNKNSVA | DLNVRGS | QQYDRLPLS | En_HC |
| 3.4 nM | 6/6 | KSSQSVKGGSRNKNSVA | DASTRES | QQYHRLPLS | GP_HC |
| 840 pM | 6/6 | KLAMYLEMNARTNHAIA | EANLKPS | QQYNRLPFS | En_Gibbs |
| 3.5 nM | 6/6 | KISGMYQKESKNKNSVA | EMANRES | QQYDRLPLS | En_HC |
| 2.4 µM | 2/6 | RLSALSGIQEVNRNSVA | QNSTRES | QQYDHLPLS | En_Gen |
| 660 pM | 6/6 | KLEQSVLYESRNKNSVA | NASTRES | QDYHRLPLS | GP_Gen |
| 4.0 nM | 6/6 | QVGQTIMADIMNKKSIA | AEETLID | QQYARLPFS | En_Gibbs |
| 3.3 nM | 6/6 | SMGWAHENGDNWMNSIA | DATHLAY | QQYSRLPIT | En_Gibbs |
| 990 pM | 6/6 | KVSQSMLYESRNKNSVA | DASTRLS | QQYHRLPLS | GP_Gen |
| 99 nM | 4/6 | KSEHSVLYESRNVNSVA | WASTRES | QQYARLPLS | Ctrl |
| 15 nM | 6/6 | HMSQVTMYGMWMRNSVA | QTSTREQ | QQYDRLPLS | En_HC |
| 410 pM | 6/6 | KMSQEVLFESRNKNSVA | DASTRES | QQYHRLPLS | GP_HC |
| 2.8 nM | 6/6 | KISQSMLYEPRNSNSVA | NASTRLR | QQYHRLPLS | GP_Gibbs |
| 190 pM | 6/6 | VLSDTIENMASEADNIA | DTTETSY | QQYYRLPLS | En_Gibbs |
| 4.1 nM | 6/6 | MLSDTVMYGSYSRNSVA | QESTRAE | QQYHHLPLS | En_HC |
| 1.6 nM | 6/6 | KSSPSVMGEERNSNSVA | AASVREV | QQYHRLPLS | GP_Gibbs |
| not detected | 0/6 | ESSQSVLYVSRNKNSVA | DASTRES | QQYHRLRLS | Ctrl |
| 24 nM | 6/6 | MISQLHNMGTFAINSVA | QASIRNA | QQYDRLPLA | En_Gen |
| 1.4 nM | 6/6 | VLSASELYEDRPKNSVA | NASTRMS | QQYHRLPLS | GP_Gibbs |
| 560 pM | 6/6 | KSSQGQLYENRNKNSVA | SASQRES | QQYHRLPLS | GP_Gibbs |
| 1.9 nM | 6/6 | KISMLQRFESQAKNSIA | EMSRREN | QQYHRLPLS | En_HC |
| 3.2 nM | 6/6 | HIQDDAGGLSEQFDSVA | STEERSY | QQYHRLPLS | En_Gibbs |
| 22 nM | 6/6 | KLQWYPLEIRDPGSAVA | EAATRYN | QQYMRLPLM | En_Gibbs |
| 57 nM | 1/6 | LSSQSVLYESRNKNSVA | WASCRES | QQYHRLPLS | Ctrl |
| 27 nM | 6/6 | HLSDSIEKMASNARNIA | DETETEM | QQYYTLPLS | En_Gibbs |
| 48 µM | 1/6 | KSSDSVLRESRNKYSVA | WASTRES | QQYHRLPLS | Ctrl |
| 290 pM | 6/6 | KSAFSDLNESRNKNSVA | DASTRES | QQYHRLPLS | GP_Gibbs |
| 8.7 nM | 6/6 | KLFDETSSEQVNARAVA | DSHTVSE | QQYHMLPLA | En_Gibbs |
| 63 nM | 6/6 | KSSQSVLYESRNKNSVA | WASTRES | QQYHSLPLS | Ctrl |
| not detected | 0/6 | KLGMWMYGPTEAKYAVA | EDEMRVH | QQYDRLPLI | En_Gibbs |
| 560 pM | 6/6 | KLYQSYLYESRNKNSVA | NASTRES | QQYHRLPLS | GP_Gen |
| 1.7 nM | 6/6 | SITQLVNYGSRNKNSVA | QMSTRES | QQYDRLPLS | En_HC |
| 570 pM | 6/12 | KLSQSVLYESRNKNSVA | MASTRES | QQYHRLPLS | Ctrl+GP_Gen |
| 1.3 nM | 6/6 | LVDQSQLYEQRNKNSVA | SASLRES | QQYHRLPLS | GP_Gibbs |
| 630 pM | 6/6 | KLEQSWLYESRNKNSVA | NASQRLS | QQYHRLPLS | GP_Gen |
| 17 nM | 2/6 | TISQITSLFTQNIANVA | EVSTREN | QQYDRLPLS | En_Gen |
| 1.9 nM | 6/6 | KVSQSELYESGNKNSVA | NASSRES | QQYHRLPLS | GP_HC |
| 3.6 nM | 6/6 | KSGQSVWYESRNKNSVA | DASTRER | QQYHRLPLS | Ctrl |
| 1.1 nM | 6/6 | KLEPSELEESRNKNSVA | SASHRES | QDYHRLPLS | GP_Gibbs |
| 11 nM | 6/6 | TISQLHNMGTFAINSVA | QAEIRNA | QQYDRLPLT | En_Gen |
| 5.3 nM | 6/6 | KLYVSTMLETHNKNSIA | DLSTRGN | QQYHRLPLS | En_HC |
| 18 nM | 2/6 | AIKQLWSTMGAARHNVA | EAKTRAI | QDYFRLPLI | En_Gibbs |
| 490 pM | 6/6 | KCSQSVLYESRNKNNVA | DASTRES | QQYHRLPLS | GP_Gen |
| 920 pM | 6/6 | KLQMMVEMESRNPNSVA | SASTREL | QQYHRLPLS | GP_Gibbs |

The first 3 variants above that were never detected:

| CDR-L1 | CDR-L2 | CDR-L3 | group | Kd (apparent) | replicates with signal |
|---|---|---|---|---|---|
| KSSQSVLEESRMKNSVA | WASTRES | NQYHRLPLS | Ctrl | not detected | 0/6 |
| ESSQSVLYVSRNKNSVA | DASTRES | QQYHRLRLS | Ctrl | not detected | 0/6 |
| KLGMWMYGPTEAKYAVA | EDEMRVH | QQYDRLPLI | En_Gibbs | not detected | 0/6 |

The parent sequence was in this pool as ten entries: three were never detected, three once, and four in most replicates, with averages from 2.2 nM to 240 nM. Empty control strains, which show no peptide, gave a signal in 4% of pairings with all light chain designs; the median was 430 nM and 95% of these signals were weaker than 38 nM. No background was subtracted. The authors' rule: three or more of the six replicates give a measured affinity, fewer mean a poor binder. A sequence measured in both rounds can read differently, since the two assays cover different ranges. Some sequences occur more than once in the pool; their replicates are pooled.

Reference: Li et al. 2023, doi:10.1038/s41467-023-39022-2. File: FLAb, binding data.